Assay outcomes: PubChem, Broad Institute
HIV Env fusion = HIV envelope-mediated fusion inhibition | HeLa-JRFL Env/CEM21 cell fusion, luciferase | inhibition, % at 12.3 µM | 360,000 compounds, 1.1% hits | AID 651610;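 active = mean replicate inhibition score of at least 50 and every replicate individually at or above 50; inconclusive = only one of the two criteria met; inactive = mean below 50 and not all replicates reaching 50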;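 note: 0% = plate neutral controls and 100% = maraviroc near 300 nM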
miR-122 sensor = miR-122 inhibition in Huh7 cells; 340,000 compounds, 0.3% hits; AID 602342; activation (reporter increase), % at 12.5 µM; Huh7 miR-122 Renilla luciferase sensor, 48 h; neutral wells = 0, positive control = 100;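 active = mean replicate activation score at least 90 and every replicate individually at or above 90; inconclusive = only one of the two criteria met; inactive = neither criterion met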;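 note: higher luciferase means less miR-122 activity so hits act as miR-122 inhibitors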
Cneo AK release = Cryptococcus neoformans lysis via adenylate kinase release | C. neoformans lysis, adenylate kinase release luminescence, 4 h; normalised: neutral wells 0, clomiphene wells 100 | lysis activity, % at 15 µM | 360,000 compounds, 0.2% hits | AID 651654;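 active = mean lysis activity across replicates of at least 80%, whatever share of replicates individually reach that level; inactive = mean lysis activity below 80%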
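read-out = cell lysis signal | test system = log-phase Cryptococcus neoformans yeast cells | input = cells at 5 × 10^6 per mL | medium = fresh YPD growth medium | signal = luminescent adenylate kinase detection reagent | timing = 4 h at 37 °C static, read 1 h later | dosing = single dose | controls = Clomiphene as positive lysis control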
PGC1a acetyl inh = lowers PGC1a acetylation signal in U2OS cells | AlphaScreen anti-acetyl-lysine; with virally co-expressed GCN5 acetyltransferase | inhibition, % at 15.6 µM | 350,000 compounds, 0.17% hits | AID 651687;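 active = every replicate shows inhibition of at least 40%; inconclusive = mean inhibition at least 40% but some replicate below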;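 note: 0% = neutral control wells and 100% = positive control wells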
FN deposition inh = fibronectin deposition inhibition; AH1F fibroblasts, Alexa488-fibronectin deposition fluorescence, overnight; inhibition, % at 12.6 µM; 350,000 compounds, 0.086% hits; AID 743247;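 active = mean inhibition across replicates of 30% or more, regardless of how many single replicates reach that level; inconclusive = mean under 30% yet at least half of replicates reach 30%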;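 note: positive control wells lacked labelled fibronectin entirely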
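test system = AH1F fibroblasts assembling fluorescent fibronectin matrix | quantity = 10000 AH1F cells per well | buffer or medium = DMEM plus 2% serum, read in PBS | doses = single dose, pinned | incubation = 1 h cell attachment, overnight exposure to compound and label | detection = fluorescence at 485 nm excitation, 525 nm emission | read-out basis = inhibition from reduced deposited-fibronectin fluorescence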
Yeast UUG start = modulators of yeast start codon fidelity, primary screen, whole organism, S. cerevisiae, single point, plate reader; S. cerevisiae UUG-firefly luciferase reporter, luminescence/redox ratio; activity score, % at 18.7 µM; actives 0.13% (n = 350,000); AID 602363, 2012;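 active = replicate mean at a twofold rise or more, about +100% in these data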;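 also: firefly luciferase made from a UUG start codon reports start codon fidelity; reporter light over untreated wells divided by growth signal over untreated wells; some hits fall short of that in this replicate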
* = called active by the depositor; ? = inconclusive; . = no result; [ ] = another dose, or the depositor's remark. The list is not random: actives were taken first. Their share in the collection is about 1.5%.

structure | HIV Env fusion | miR-122 sensor | Cneo AK release | PGC1a acetyl inh | FN deposition inh | Yeast UUG start
COc1cc(OC)cc(C(=O)NNC(=O)c2ccccn2)c1 | 37 | -8 | 1 | 10 | 7 | -17
Cc1ccc(C(=O)O)cc1NC(=O)C1=CSCCO1 | 1 | 0 | -4 | 13 | 4 | -7
Clc1cccc(/C=N/Nc2nnc(Cl)c3ccccc23)c1 | -94 | 34 | 2 | 13 | . | -5
Cc1cc(CSc2ccccc2)ccc1NC(=O)c1ccc(CN2CCOCC2)cc1 | 68* | . | . | . | 9 | .
CC(C)N(Cc1ccccc1)S(=O)(=O)c1ccc(F)cc1 | 19 | -2 | -2 | 13 | -4 | -11
C=C[C@H](Cc1ccccc1)N(Cc1ccccc1)S(=O)(=O)N(Cc1ccccc1)[C@H](C=C)Cc1ccccc1 | 61* | . | 1 | . | 14 | -9
CC(=O)N(C)C[C@@H]1Oc2ncc(-c3cncnc3)cc2C(=O)N([C@@H](C)CO)C[C@@H]1C | -9[16.7 µM] | 2[16.7 µM] | -5 | 8 | . | -14
COc1ccc(-c2cccc([C@H]3[C@@H]4C=CC[C@@H](C)[C@@H]4C(=O)N3Cc3ccccc3)c2)cc1 | 43 | -1 | 2 | -15 | -2 | -12
COc1ccc(-c2ccc(OC)c([C@H]3[C@H]4C=CC[C@@H](C)[C@@H]4C(=O)N3Cc3ccccc3)c2)cc1 | 35 | 2 | 0 | 6 | 0 | -23
COc1cc(-c2cccc([C@H]3[C@@H]4C=CC[C@@H](C)[C@@H]4C(=O)N3Cc3ccccc3)c2)cc(OC)c1OC | 47* | -4 | 2 | -33 | . | 2
COc1ccc(-c2ccc(C)cc2)cc1[C@H]1[C@H]2C=CC[C@@H](C)[C@@H]2C(=O)N1Cc1ccccc1 | 56* | 15 | -1 | -5 | -7 | -3
Cn1c(=O)c2c(nc(SCc3ccc(C(=O)O)cc3)n2C)n(C)c1=O | -3 | 12 | 1 | 0 | -3 | -11
COc1ccc(NC(=S)NCCCN2CCN(C3CCCCC3)CC2)cc1 | 63* | -2 | -4 | -12 | 2 | -9
CCOc1ccc(NC(=S)NCCCN2CCN(C3CCCCC3)CC2)cc1 | . | -3 | -2 | 14 | 7 | -16
COc1ccc(Cl)cc1C(=O)NNC(=O)c1cccc(S(=O)(=O)N(C)C)c1 | -15 | . | . | . | 31* | .

Quoted at random: four compounds from above.
structure | HIV Env fusion | miR-122 sensor | Cneo AK release | PGC1a acetyl inh | FN deposition inh | Yeast UUG start
COc1cc(-c2cccc([C@H]3[C@@H]4C=CC[C@@H](C)[C@@H]4C(=O)N3Cc3ccccc3)c2)cc(OC)c1OC | 47* | -4 | 2 | -33 | . | 2
COc1ccc(-c2cccc([C@H]3[C@@H]4C=CC[C@@H](C)[C@@H]4C(=O)N3Cc3ccccc3)c2)cc1 | 43 | -1 | 2 | -15 | -2 | -12
Cc1ccc(C(=O)O)cc1NC(=O)C1=CSCCO1 | 1 | 0 | -4 | 13 | 4 | -7
COc1ccc(Cl)cc1C(=O)NNC(=O)c1cccc(S(=O)(=O)N(C)C)c1 | -15 | . | . | . | 31* | .

New compounds follow:
structure | HIV Env fusion | miR-122 sensor | Cneo AK release | PGC1a acetyl inh | FN deposition inh | Yeast UUG start
COc1cc(/C=C/C(=O)NNC(=O)c2cccc(S(=O)(=O)N(C)C)c2)cc(OC)c1OC | 5 | . | 4 | . | -7 | 1
COc1ccccc1-c1c(-c2ccc(O)cc2O)n[nH]c1C(F)(F)F | 93* | -3 | 1 | 14 | -2 | -11
O=C(O)CCC(=O)Nc1ccccc1C(=O)Nc1ccccc1 | -136 | 115* | -4 | 0 | 5 | -21
O=C(c1ccc([N+](=O)[O-])cc1)N1CCN(C(=O)C2CCCCC2)CC1 | 13 | -10 | -3 | 7 | . | -3
CN(C)/C=C1/C=C(C=O)OC1=O | -9 | . | . | . | 0 | .
O=[N+]([O-])c1cccc(NC(=S)NCc2ccncc2)c1 | 38 | . | . | 8 | -19 | .
O=[N+]([O-])c1cccc(NC(=S)Nc2nc(-c3ccccc3Cl)cs2)c1 | 97* | . | -4 | . | . | -21
Cc1nnnn1-c1cccc(C(=O)O)c1 | . | -5 | 0 | 1 | . | -15
Cc1ccc(N(C)S(=O)(=O)c2c[nH]c3ccc([N+](=O)[O-])cc23)cc1 | 3 | 110* | 0 | -8 | -16 | -9
CN1c2ccccc2C(C)(C)C12C=Nc1c(ccc3ccccc13)O2 (stereo not given) | . | 4 | . | -25 | . | .
CN(C)c1ccc(-c2ccnc3c2CC(C)(C(=O)NCC2CC2)O3)cc1 (stereo not given) | 43 | -7 | 0 | . | 35* | -10
CN(C)c1ccc(CNC(=O)C2(C)Cc3c(-c4ccc(N(C)C)cc4)ccnc3O2)cc1 (stereo not given) | -22 | . | 2 | . | 3 | -34
O=C(COn1nnc2ccc(Cl)cc21)NC12CC3CC(CC(C3)C1)C2 | ? | -3 | . | 85* | . | .
O=C(COn1nnc2ccc(Cl)cc21)Nc1ccc(F)cc1 | 5 | 3 | -1 | -9 | -5 | -11
CSc1nnc(C)c(=O)n1COC(=O)c1ccc([N+](=O)[O-])cc1 | 13 | 0 | . | 7 | 31* | .

Sorted by value in PGC1a acetyl inh (lowest first): 3 of the compounds above
| structure | HIV Env fusion | miR-122 sensor | PGC1a acetyl inh | Yeast UUG start |
| --- | --- | --- | --- | --- |
| O=C(COn1nnc2ccc(Cl)cc21)Nc1ccc(F)cc1 | 5 | 3 | -9 | -11 |
| O=C(c1ccc([N+](=O)[O-])cc1)N1CCN(C(=O)C2CCCCC2)CC1 | 13 | -10 | 7 | -3 |
| O=[N+]([O-])c1cccc(NC(=S)NCc2ccncc2)c1 | 38 | . | 8 | . |

(next part)
structure | HIV Env fusion | miR-122 sensor | Cneo AK release | PGC1a acetyl inh | FN deposition inh | Yeast UUG start
CCN(CC(=O)Nc1c(F)cccc1F)C(=O)c1ccc2c(c1)NC(=O)C(C)S2 (stereo not given) | . | . | 4 | . | -2 | -15
Cc1cc(Nc2ccc3c(c2)OCCO3)n2ncnc2n1 | -35 | -8 | 2 | -3 | -16 | -12
CN(C)C(=O)c1ccc(-c2ccc([C@@H]3[C@@H](CO)N(C(=O)C4CC4)[C@H]3C#N)cc2)cc1 | 1[16.7 µM] | . | 0 | -16 | 4 | -13
Cc1c(C(=O)Nc2ccccn2)oc2ccccc12 | . | 95* | -2 | -11 | . | -23
CN1C(=O)N[C@@H]2c3ccccc3O[C@@]1(C)[C@@H]2COC(=O)c1ccc([N+](=O)[O-])cc1 | -2[16.7 µM] | . | -2 | 0 | . | .
CN1C(=O)N[C@@H]2c3ccccc3O[C@@]1(C)[C@@H]2COC(=O)c1ccccc1 | 0[16.7 µM] | . | 96* | -1 | . | 15
CCCOc1ccc(-c2c(C(=O)N/N=C/C3CC=CCC3)nnn2-c2nonc2N)cc1 (stereo not given) | 0 | 0 | 7 | -28 | -35 | -5
CC(C)NC(=O)N(C)C[C@@H]1Oc2ccc(NS(=O)(=O)c3cccs3)cc2CC(=O)N([C@H](C)CO)C[C@@H]1C | 1[16.7 µM] | 6[16.7 µM] | -3 | 9 | . | -14
Cc1ccc(NC(=O)CN(C)C(=O)c2ccc(C(F)(F)F)cc2)cc1 | 2 | . | . | . | 8 | .
COc1ccccc1NC(=O)N[C@H]1CC[C@@H](CCn2cc(-c3ccccc3OC)nn2)O[C@@H]1CO | ? | . | 99* | 5 | -5 | 2
COCc1cn(CC[C@H]2CC[C@H](NC(=O)Nc3ccc(OC)cc3)[C@H](CO)O2)nn1 | -14[16.7 µM] | . | -2 | 0 | . | 216*
Cc1ccccc1S(=O)(=O)N[C@H]1CC[C@H](CCn2cc(Cc3ccccc3)nn2)O[C@@H]1CO | 4[16.7 µM] | . | 1 | 61* | 14 | -5
COc1ccccc1NC(=O)N[C@H]1CC[C@@H](CCn2cc(-c3ccccc3OC)nn2)O[C@H]1CO | 10[16.7 µM] | . | 0 | -14 | 9 | -4
CC(=O)OCc1cc(-c2nn(C)c(=O)c3ccccc23)ccc1C | -3 | . | . | -26 | -12 | .
O=C(NC1CCCCC1)C(c1ccc2ncccc2c1)N(Cc1cccs1)C(=O)c1cccs1 (stereo not given) | . | 7 | 0 | -16 | . | -17
O=C(NC1CCCCC1)C(c1cccs1)N(Cc1cccs1)C(=O)c1cccs1 (stereo not given) | 94* | 9 | 1 | -21 | -11 | -13
Cc1cc(C)nc(SCc2nnc(SCC(=O)Nc3ccc(C)c(C)c3)n2Cc2ccco2)n1 | 54* | -3 | 0 | 1 | . | -11
